Test results taken from paper PMC4216168, “Ligand Binding and Activation of PPARγ by Firemaster® 550: Effects on Adipogenesis and Osteogenesis in Vitro” (Environmental Health Perspectives, 2014).

Chains of the proteins cited; added tags and fusions are not shown. Residues count along the entry.
UniProt P37231, 29-505: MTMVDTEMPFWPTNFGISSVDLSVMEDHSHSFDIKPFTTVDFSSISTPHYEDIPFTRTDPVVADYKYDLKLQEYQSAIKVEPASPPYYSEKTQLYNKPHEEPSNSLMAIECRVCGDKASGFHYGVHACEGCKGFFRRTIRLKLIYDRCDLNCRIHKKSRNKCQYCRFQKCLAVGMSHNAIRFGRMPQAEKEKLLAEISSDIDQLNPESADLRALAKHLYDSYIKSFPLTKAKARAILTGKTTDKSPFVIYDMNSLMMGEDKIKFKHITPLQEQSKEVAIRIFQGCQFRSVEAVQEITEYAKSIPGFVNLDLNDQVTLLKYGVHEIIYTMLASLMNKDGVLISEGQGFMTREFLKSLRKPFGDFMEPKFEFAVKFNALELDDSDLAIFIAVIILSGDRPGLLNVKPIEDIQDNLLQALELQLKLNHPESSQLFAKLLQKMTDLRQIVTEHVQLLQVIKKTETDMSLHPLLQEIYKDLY

Molecular target: human PPARγ1 (Homo sapiens, UniProt P37231)
Assay: PPRE-luciferase reporter assay in Cos-7 cells transfected with human PPARG1 and RXRA
Assay type: cell-based
Details: fold-change from DN-control, 24 hr; rosiglitazone at 1 μM
Excerpt: Reporter assays. Cos-7 cells were transiently transfected with vectors containing human PPARG1 (provided by V.K. Chatterjee, University of Cambridge, Cambridge, UK) ([Gurnell et al. 2000]) and human RXRA (plasmid 8882; Addgene, Cambridge, MA) ([Tontonoz et al. 1994]), with PPRE x3-TK-luc (plasmid 1015; Addgene) ([Kim et al. 1998]) and CMV-eGFP reporter constructs using Lipofectamine2000 (Invitrogen). Cultures were cotransfected with either pcDNA3 (Invitrogen) or dominant negative human PPARG (PPARγ-DN; provided by V.K. Chatterjee). […] After 24 hr incubation, cells were lysed in Glo Lysis Buffer and mixed with Bright Glo reagent (both from Promega, Madison, WI). […] Luminescence was normalized by GFP (green fluorescent protein) fluorescence in the same well. The normalized luminescence for each well was then divided by the normalized luminescence measured in control DN-PPARγ–transfected wells to determine the fold-change from DN-control.

In the case of CN(CCOc1ccc(CC2SC(=O)NC2=O)cc1)c1ccccn1 (stereo not shown) [rosiglitazone, reference compound], the “maximal PPARγ-driven reporter activity” value is reported as 11.3 ± 0.9 fold and 11.3 ± 0.6 fold.

Values joined by “and” are separate entries in the source; they are usually repeats but may differ in a detail not shown here. Equal values may be shown once.
